Laboratory results taken from PMC10080687, “Tautomer-Specific Deacylation and Ω-Loop Flexibility Explain the Carbapenem-Hydrolyzing Broad-Spectrum Activity of the KPC-2 β-Lactamase” (Journal of the American Chemical Society, 2023).

Experiments:
[1] = system: CC1(C)S[C@@H]2[C@H](NC(=O)[C@H](N)c3ccccc3)C(=O)N2[C@H]1C(=O)O; test: purified protein; settings: acylates Ser70
[2] = system: CC(=O)OCC1=C(C(=O)O)N2C(=O)[C@@H](NC(=O)Cc3cccs3)[C@H]2SC1; test: purified protein; settings: acylates Ser70

KPC-2 (Klebsiella pneumoniae)
Km [1]: 270 µM
kcat [1]: 82 s⁻¹
kcat/Km [1]: 300000 M⁻¹ s⁻¹
kcat/Km [2]: 2.7e+06 M⁻¹ s⁻¹
